The values that follow are results of earlier work, collected in patent US20060240098A1, “Formulations for hyperforin-enriched hypericum fractions” (Aphios Corporation, priority 2004, published 2006).

The conditions of this series: cited from earlier work.

As to hyperforin [Hyperforin (Aphios)], the pKa – broadly, the pH at which an ionisable group is half protonated – is listed as 4.8.
